Data reported in ChEMBL document CHEMBL4017533, “Molecular Recognition of Agonists and Antagonists by the Nucleotide-Activated G Protein-Coupled P2Y2 Receptor” (J Med Chem, 2017).

Tests used:
[1] = test system: P2Y1 receptor (Homo sapiens); test: Selectivity ratio of IC50 for P2Y1 receptor K46A mutant (unknown origin) to IC50 for wild type P2Y1 receptor (unknown origin)
[2] = test system: P2Y1 receptor (Homo sapiens); test: Selectivity ratio of IC50 for P2Y1 receptor R195A mutant (unknown origin) to IC50 for wild type P2Y1 receptor (unknown origin)
[3] = test system: P2Y1 receptor (Homo sapiens); test: Selectivity ratio of IC50 for P2Y1 receptor A286W mutant (unknown origin) to IC50 for wild type P2Y1 receptor (unknown origin)
[4] = test system: P2Y1 receptor (Homo sapiens); test: Selectivity ratio of IC50 for P2Y1 receptor Y303F mutant (unknown origin) to IC50 for wild type P2Y1 receptor (unknown origin)
[5] = Selectivity ratio of IC50 for P2Y2 receptor Y306F mutant (unknown origin) to IC50 for wild type P2Y2 receptor (unknown origin); conditions: Homo sapiens

Ratio IC50 [1]: 23
Ratio IC50 [2]: 8
Ratio IC50 [3]: 45
Ratio IC50 [4]: 156
Ratio IC50 [5]: 129
SMILES: CNc1nc(I)nc2c1ncn2[C@H]1C[C@H](OP(=O)(O)O)[C@]2(COP(=O)(O)O)C[C@H]12
